The values below come from US9289381B2, “Stabilization and storage of biological pharmaceutical compositions” (The University of North Carolina at Charlotte, priority 2009, dated 2016).

Data set [1] can be described thus: Osmolality by vapor pressure osmometer, osmotic coefficient. The class given is physicochemical.
The subject of data set [2] is J774 murine macrophage cell line. Nature of the data set: Resazurin metabolism (cell viability) assay. (In general: Alamar Blue is a resazurin reagent that responds to reducing activity.)
Data set [3] in a line: Miscibility with water and complemented media.

With “Choline bis(2,4,4-trimethyl pentyl) phosphinate”, the “osmotic coefficient (φ)” value in data set [1] (100 mM in water, 1 indicates 100% dissociation) was found to be 0.5. The “Osmotic Coef., φ in H2O” value in data set [1] (100 mM solutions in deionized water) is listed as 0.48. The “Log EC50, μM (Dose Response Model)” value in data set [2] (J774, 48 h, value is the logarithm of EC50, error of last digit in parentheses, equation 1) is 2.39 (2) μM. For the same substance, the EC50 in data set [2] (J774, 48 h exposure) is ≤ 250 µM. The solution behaviour result in data set [3] (1 mM stock solution) is on record as “miscible with water”; in data set [3] (10 and 100 mM, 4° C.) it was “appeared to precipitate”; in data set [3] (10 and 100 mM, 25° C. and 37° C.), “form an emulsion or dispersion”.

The EC50 is the midpoint of the concentration-response curve. A higher EC50 goes with weaker potency.
